Source: patent publication US8093262B2 (priority 2005, dated 2012)

What was measured:
Format in all cases: in vivo
Swiss Webster NIH mice = assay: Formalin test for antinociceptive activity (paw licking/biting); details: 1 mg/kg i.p., single animals
Description: The formalin test for antinociceptive activity is described in numerous publications, e.g., Hunskaar, S., O. B. Fasmer, and K. Hole, J. Neurosci. […] The formalin test is accepted as an art recognized model of persistent clinical pain.
Male Swiss Webster NIH mice (20-30 g; Harlan, San Diego, Calif.) were used in the experiments described herein. Food was withdrawn on the day of experiment. Mice were placed in Plexiglass jars for at least 1 hour to accommodate to the environment. Following the accommodation period, mice were weighed and given either a huperzine compound administered intraperitoneal (i.p.) or oral (p.o.), or the appropriate volume of vehicle (10% Tween-80). Fifteen minutes after the i.p. dosing, and 30 minutes after the p.o. dosing mice were injected with formalin (20 μL of 5% formaldehyde solution in saline) into the dorsal surface of the right hind paw. Mice were transferred to the Plexiglass jars and monitored for the amount of time spent licking or biting the injected paw. Periods of licking and biting were recorded in 5 minute intervals for 40 minutes after the formalin injection. All experiments were done in a blinded manner. The early phase (acute) of the formalin response is measured as licking/biting between 0-5 minutes, and the late phase (inflammatory) is measured from 10-40 minutes. Differences between vehicle and drug treated groups are analyzed by one-way analysis of variance (ANOVA).
Fifteen minutes after the i.p. dosing, mice were injected with formalin (20 μL of 5% formaldehyde solution in saline) into the dorsal surface of the right hind paw. Periods of licking and biting were recorded in 5 minute intervals for 40 minutes after the formalin injection as shown below in Tables 1 and 2. All experiments were done according to the art-recognized Anticonvulsant Screening Program of the NINDS at the University of Utah.
Duration of paw licking in the tables below is expressed in seconds.

mice = assay: Toxicity model (TOX), rotorod, mice; details: i.p., 5 mg/kg
rats = assay: Toxicity (TOX) / minimal motor impairment, rats; details: oral, 1 mg/kg
Description: Peak anticonvulsant activity was observed one-hour after p.o. administration of 1 mg/kg.

## C/C=C1\[C@H]2C=C(C)C[C@]1(N)c1ccc(=O)[nH]c1C2 [Huperzine A]
Swiss Webster NIH mice; 0 min after formalin
  Duration of mice paw licking: 0.00 s
Swiss Webster NIH mice; 5 min
  Duration of mice paw licking: 0.00 s
Swiss Webster NIH mice; 10 min
  Duration of mice paw licking: 0.00 s
Swiss Webster NIH mice; 15 min
  Duration of mice paw licking: 0.00 s
Swiss Webster NIH mice; 20 min
  Duration of mice paw licking: 0.00 s
Swiss Webster NIH mice; 25 min
  Duration of mice paw licking: 0.00 s
Swiss Webster NIH mice; 30 min
  Duration of mice paw licking: 0.00 s
Swiss Webster NIH mice; 35 min
  Duration of mice paw licking: 0.00 s
Swiss Webster NIH mice; 40 min
  Duration of mice paw licking: 0.00 s
mice; 0.5 h
  TOX N/F, time course: 4/4
mice; 1.0 h
  TOX N/F, time course: 4/4
mice; 2.0 h
  TOX N/F, time course: 4/4
mice; 4.0 h
  TOX N/F, time course: 4/4
mice; 6.0 h
  TOX N/F, time course: 4/4
rats; 0.25 h
  TOX N/F, time course: 0/4
rats; 0.5 h
  TOX N/F, time course: 0/4
rats; 1.0 h
  TOX N/F, time course: 0/4
rats; 2.0 h
  TOX N/F, time course: 0/4
rats; 4.0 h
  TOX N/F, time course: 0/4
rats; 6.0 h
  TOX N/F, time course: 0/4
